Data from article PMC10962654 (Journal of Food and Drug Analysis, 2023).
Where two headings read alike, the source gives them in different places.

Conditions: MI/R rats, plasma, n = 6

For kaempferol-3-O-rutinoside, the “AUC(0-t)” value (GHI-H (GHI 10 mL/kg, i.v.)) was 778.474 ± 381.478 ng·h/mL, the CL1 (GHI-H (GHI 10 mL/kg, i.v.)) was 74.68 ± 4.42 mL/min/kg and the CL2 (GHI-H (GHI 10 mL/kg, i.v.)) was 141.4 ± 10.2 mL/min/kg. The K10 (GHI-H (GHI 10 mL/kg, i.v.)) was 9.381 ± 1.601 h⁻¹, the K12 (GHI-H (GHI 10 mL/kg, i.v.)) was 17.849 ± 3.532 h⁻¹ and the K21 (GHI-H (GHI 10 mL/kg, i.v.)) was 6.923 ± 0.999 h⁻¹. For the same substance, the Q (GHI-H (GHI 10 mL/kg, i.v.)) was 141.4 ± 10.2 mL/min/kg, the V1 (GHI-H (GHI 10 mL/kg, i.v.)) was 0.49 ± 0.094 L/kg and the V2 (GHI-H (GHI 10 mL/kg, i.v.)) was 1.244 ± 0.167 L/kg. The t1/2α (GHI-H (GHI 10 mL/kg, i.v.)) was 1.32 ± 0.24 min, the t1/2β (GHI-H (GHI 10 mL/kg, i.v.)) was 20.9 ± 2.82 min and the “AUC(0-t)” value (GHI-L (GHI 2.5 mL/kg, i.v.)) was 163.614 ± 83.456 ng·h/mL. The CL1 (GHI-L (GHI 2.5 mL/kg, i.v.)) was 85.97 ± 4.43 mL/min/kg, the CL2 (GHI-L (GHI 2.5 mL/kg, i.v.)) was 155.2 ± 42.88 mL/min/kg and the K10 (GHI-L (GHI 2.5 mL/kg, i.v.)) was 10.77 ± 4.722 h⁻¹. The K12 (GHI-L (GHI 2.5 mL/kg, i.v.)) was 19.134 ± 9.171 h⁻¹, the K21 (GHI-L (GHI 2.5 mL/kg, i.v.)) was 3.903 ± 1.019 h⁻¹ and the Q (GHI-L (GHI 2.5 mL/kg, i.v.)) was 155.2 ± 42.83 mL/min/kg. It also gave a V1 (GHI-L (GHI 2.5 mL/kg, i.v.)) of 0.546 ± 0.192 L/kg, a V2 (GHI-L (GHI 2.5 mL/kg, i.v.)) of 2.437 ± 0.538 L/kg and a t1/2α (GHI-L (GHI 2.5 mL/kg, i.v.)) of 1.44 ± 0.48 min. For the same substance, the t1/2β (GHI-L (GHI 2.5 mL/kg, i.v.)) was 33.8 ± 6.96 min, the “AUC(0-t)” value (GHI-M (GHI 5 mL/kg, i.v.)) was 211.446 ± 86.297 ng·h/mL and the CL1 (GHI-M (GHI 5 mL/kg, i.v.)) was 68.9 ± 5.63 mL/min/kg. It also gave a CL2 (GHI-M (GHI 5 mL/kg, i.v.)) of 81.98 ± 19.82 mL/min/kg, a K10 (GHI-M (GHI 5 mL/kg, i.v.)) of 7.644 ± 2.745 h⁻¹ and a K12 (GHI-M (GHI 5 mL/kg, i.v.)) of 9.432 ± 4.449 h⁻¹. The K21 (GHI-M (GHI 5 mL/kg, i.v.)) was 3.686 ± 2.064 h⁻¹, the Q (GHI-M (GHI 5 mL/kg, i.v.)) was 81.98 ± 19.83 mL/min/kg and the V1 (GHI-M (GHI 5 mL/kg, i.v.)) was 0.603 ± 0.211 L/kg. It also gave a V2 (GHI-M (GHI 5 mL/kg, i.v.)) of 1.669 ± 0.725 L/kg, a t1/2α (GHI-M (GHI 5 mL/kg, i.v.)) of 2.7 ± 1.5 min and a t1/2β (GHI-M (GHI 5 mL/kg, i.v.)) of 37.3 ± 21.1 min.
